Laboratory results reported in patent EP0139891A2, “Pharmaceutical compositions with antibiotic-immunostimulating activity” (B.T.B. INDUSTRIA CHIMICA S.p.A., priority 1983, dated 1985).

Test system: rats
Experiment: Acute toxicity after oral administration
Type: in vivo
Conditions: rat

“salt of erythromycin propionate with inosine-5-phosphoric acid in the molar ratio 2:1 [F.F.001]” was tested, and the LD50 was > 6000 mg/kg.
